Data published in article PMC11855866, “Combining Sulfonylureas with Anticancer Drugs: Evidence of Synergistic Efficacy with Doxorubicin In Vitro and In Vivo” (International Journal of Molecular Sciences, 2025).

How the values were obtained:
[1] = system: HuH7 cells; experiment: MTT cytotoxicity / synergy assay, 72 h, HuH7; settings: Homo sapiens; for viability at 0.163 µM: Huh-7, read-out: HuH7 cell viability, DOXO 0.163 µM
[2] = system: U-87MG cells; experiment: MTT cytotoxicity / synergy assay, 72 h, U-87MG; settings: Homo sapiens
[3] = system: HepG2 cells; experiment: MTT cytotoxicity / synergy assay, 72 h, HepG2; settings: Homo sapiens
[4] = system: MCF-7 cells; experiment: MTT cytotoxicity / synergy assay, 72 h, MCF-7; format: cell-based; settings: Homo sapiens; for viability at 0.45 µM: MCF7, read-out: MCF-7 cell viability, DOXO 0.450 µM
Experimental: Stock solutions of the tested compounds were first prepared in DMSO at 200-fold the intended final concentration. […] The cells were treated for 72 h under the same conditions.
Following treatment, 25 μL of MTT solution was added to each well, and the plates were incubated for 2 h at 37 °C. […] IC₅₀ values, indicating the concentration required to reduce cell viability by 50% compared to untreated controls (set as 100% viability), were calculated using GraphPad Prism 9 software (GraphPad Software, San Diego, CA, USA). All data from this preliminary cytotoxic assay were analyzed by ANOVA followed by Tukey’s post hoc test for multiple comparisons, with significance set at p < 0.05. A similar statistical approach was used for the rest of the experimental work presented in this study.

[5] = read-out: U-87MG cell viability
[6] = HepG2, read-out: HepG2 cell viability
[7] = MCF7, read-out: MCF-7 cell viability

For `COc1cccc2c1C(=O)c1c(O)c3c(c(O)c1C2=O)C[C@@](O)(C(=O)CO)C[C@@H]3O[C@H]1C[C@H](N)[C@H](O)[C@H](C)O1` [DOXO, Doxorubicin], which viability at […] ([1]; Huh-7, read-out: HuH7 cell viability) is on record?
The viability at […] was 95.3 ± 0.9%.

And the viability at 0.163 µM ([1]; CHLO 0 µM)?
The viability at 0.163 µM was 94.3 ± 1.3%.

What about the viability at 0.163 µM ([1]; GLIM 0 µM) of the same compound?
Its viability at 0.163 µM is 96.3 ± 0.5%.

And the viability at 0.163 µM ([1]; GLIQ 0 µM)?
Its viability at 0.163 µM is 94.8 ± 0.7%.

What about the viability at 0.26 µM [2, 5] of the same compound?
Its viability at 0.26 µM is 75.2 ± 1%.

And the viability at 0.52 µM [2, 5]?
Its viability at 0.52 µM is 73.9 ± 0.8%.

What about the viability at 0.26 µM ([2]; read-out: U-87MG cell viability, DOXO 0.260 µM, CHLO 0 µM) of the same compound?
The viability at 0.26 µM was 70.6 ± 0.6%.

What about the viability at 0.26 µM ([2]; read-out: U-87MG cell viability, DOXO 0.260 µM, GLIM 0 µM) of the same compound?
The viability at 0.26 µM was 73.3 ± 0.3%.

What about the viability at 1.04 µM ([2]; read-out: U-87MG cell viability, DOXO 1.040 µM (3rd column), CHLO 0 µM) of the same compound?
The viability at 1.04 µM was 49.6 ± 0.7%.

And the viability at 1.04 µM ([2]; read-out: U-87MG cell viability, DOXO 1.040 µM (3rd column), GLIQ 0 µM)?
Its viability at 1.04 µM is 50.2 ± 0.5%.

What about the viability at 1.04 µM ([2]; read-out: U-87MG cell viability, DOXO 1.040 µM, GLIM 0 µM) of the same compound?
Its viability at 1.04 µM is 50.1 ± 0.7%.

And the viability at 0.18 µM [3, 6]?
Its viability at 0.18 µM is 80.1 ± 1.4%.

And the viability at 0.36 µM [3, 6]?
Its viability at 0.36 µM is 70.1 ± 0.5%.

What about the viability at 0.72 µM [3, 6] of the same compound?
The viability at 0.72 µM was 50.1 ± 1.7%.

And the viability at 0.18 µM ([3]; HepG2, read-out: HepG2 cell viability, DOXO 0.180 µM, CHLO 0 µM)?
Its viability at 0.18 µM is 79.1 ± 0.8%.

What about the viability at 0.18 µM ([3]; HepG2, read-out: HepG2 cell viability, DOXO 0.180 µM, GLIQ 0 µM) of the same compound?
The viability at 0.18 µM was 81.1 ± 1%.

And the viability at 0.36 µM ([3]; HepG2, read-out: HepG2 cell viability, DOXO 0.360 µM, GLIM 0 µM)?
Its viability at 0.36 µM is 69.2 ± 1.6%.

And the viability at 0.72 µM ([3]; HepG2, read-out: HepG2 cell viability, DOXO 0.720 µM, CHLO 0 µM)?
The viability at 0.72 µM was 50.6 ± 1.3%.

What about the viability at 0.72 µM ([3]; HepG2, read-out: HepG2 cell viability, DOXO 0.720 µM, GLIQ 0 µM) of the same compound?
Its viability at 0.72 µM is 51.6 ± 0.4%.

And the viability at 0.113 µM [4, 7]?
The viability at 0.113 µM was 77 ± 1.2%.

What about the viability at 0.225 µM [4, 7] of the same compound?
The viability at 0.225 µM was 75.7 ± 1%.

And the viability at 0.113 µM ([4]; MCF7, read-out: MCF-7 cell viability, DOXO 0.113 µM, GLIM 0 µM)?
The viability at 0.113 µM was 70.2 ± 0.5%.

What about the viability at 0.113 µM ([4]; MCF7, read-out: MCF-7 cell viability, DOXO 0.113 µM, GLIQ 0 µM) of the same compound?
Its viability at 0.113 µM is 74.2 ± 1.6%.

What about the viability at 0.225 µM ([4]; MCF7, read-out: MCF-7 cell viability, DOXO 0.225 µM, GLIM 0 µM) of the same compound?
Its viability at 0.225 µM is 71.2 ± 0.7%.

What about the viability at 0.225 µM ([4]; MCF7, read-out: MCF-7 cell viability, DOXO 0.225 µM, GLIQ 0 µM) of the same compound?
The viability at 0.225 µM was 73.9 ± 1%.

And the viability at 0.45 µM ([4]; GLIM 0 µM)?
The viability at 0.45 µM was 50.8 ± 0.4%.

And the viability at 0.45 µM ([4]; GLIQ 0 µM)?
Its viability at 0.45 µM is 50.1 ± 1%.

Like-named read-outs stand apart in the source and are kept apart here.
